Data on 2 molecules can be found in patent publication US20040110803A1, “Methods and compositions for the use of D-malic acid to decrease serum triglyceride, cholesterol and lipoprotein levels” (priority 2002, published 2004).

Data set [1] concerns liver of Zucker fa/fa rat.
Data set [2] deals with liver mitochondria. Particulars: oxygen consumption, FIG. 5. The method, then: To determine the effect of D-malic acid on hepatic mitochondria, mitochondria from the Sprague Dawley rat used for isoenzyme studies were prepared according to the method of Johnson and Lardy (1967). The […] pellet was resuspended in cold sucrose buffer and recentrifuged at 600×g. This supernatant was mixed with the original 600×g supernatant. The 10,000×g mitochondria pellet was suspended in 5 mL of sucrose buffer. […] Consumption of oxygen was represented as percent of oxygen saturation.

The structures appear in SMILES notation. Structures can show the parent of a compound that is named as a salt. Where two headings read alike, the source gives them in different places.

Consider `O=C(O)CC(O)C(=O)O` (racemic) [D,L-malic acid, D,L-malic acid, sodium salt], for which the “AT/DMado, ratio of tissue levels of ATP/ADP + AMP + Adenosine” value in data set [1] (12 weeks treatment, ± SEM) was 1.61 ± .18. For the same molecule, in data set [1] (rat, in vivo), the “energy status of hepatocytes (ratio of high to low energy nucleotides) vs control” value was “greater”.

As to `O=C(O)C[C@H](O)C(=O)O` [L-malic acid, L-malic acid, sodium salt, reference compound], the figures for the “concentration at which metabolism by mitochondria saturates” value in data set [2] and in data set [2] (converted) were 30 umole/5 mL and 6 mM, respectively.
